The target of this test is T1, tankyrase 2 (Homo sapiens, UniProt Q9H2K2).
T1 sequence (Q9H2K2 1-1166): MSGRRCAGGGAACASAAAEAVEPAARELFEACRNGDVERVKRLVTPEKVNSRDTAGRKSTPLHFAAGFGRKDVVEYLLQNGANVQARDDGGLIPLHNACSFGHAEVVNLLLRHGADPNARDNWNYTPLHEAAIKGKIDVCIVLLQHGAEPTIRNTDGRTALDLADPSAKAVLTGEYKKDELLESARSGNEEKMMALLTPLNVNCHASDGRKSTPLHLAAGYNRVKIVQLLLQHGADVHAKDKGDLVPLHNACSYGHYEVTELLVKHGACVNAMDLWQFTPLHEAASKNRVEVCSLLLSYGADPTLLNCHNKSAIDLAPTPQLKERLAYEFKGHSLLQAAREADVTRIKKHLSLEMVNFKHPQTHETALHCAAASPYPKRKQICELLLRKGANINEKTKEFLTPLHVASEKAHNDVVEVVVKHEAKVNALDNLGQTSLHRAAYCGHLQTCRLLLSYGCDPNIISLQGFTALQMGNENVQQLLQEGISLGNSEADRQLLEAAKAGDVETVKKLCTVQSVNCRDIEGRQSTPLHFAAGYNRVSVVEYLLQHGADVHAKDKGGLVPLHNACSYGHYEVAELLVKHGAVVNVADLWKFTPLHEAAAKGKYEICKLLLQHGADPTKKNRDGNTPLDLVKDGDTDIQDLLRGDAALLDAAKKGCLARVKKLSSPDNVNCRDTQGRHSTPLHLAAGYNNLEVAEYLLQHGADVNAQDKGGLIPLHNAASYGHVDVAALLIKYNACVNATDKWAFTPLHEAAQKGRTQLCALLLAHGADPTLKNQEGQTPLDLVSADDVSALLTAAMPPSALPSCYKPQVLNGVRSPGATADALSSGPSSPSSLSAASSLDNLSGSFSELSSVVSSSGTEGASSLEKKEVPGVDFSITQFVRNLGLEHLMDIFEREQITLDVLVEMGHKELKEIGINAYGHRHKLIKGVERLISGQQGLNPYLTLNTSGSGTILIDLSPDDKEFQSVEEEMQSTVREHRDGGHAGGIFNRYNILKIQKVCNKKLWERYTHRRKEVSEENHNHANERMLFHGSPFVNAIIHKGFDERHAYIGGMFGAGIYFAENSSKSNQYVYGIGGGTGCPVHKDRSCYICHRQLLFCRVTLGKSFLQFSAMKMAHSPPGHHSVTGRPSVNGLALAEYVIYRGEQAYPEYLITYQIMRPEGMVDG
Briefly: Affinity for tankyrase 2 (Fig. 13). Type of test: binding.

In the case of `Cn1ncnc1[C@H]1c2n[nH]c(=O)c3cc(F)cc(c23)N[C@@H]1c1ccc(F)cc1` [talazoparib, (8S,9R)-5-Fluoro-8-(4-fluorophenyl)-2,7,8,9-tetrahydro-9-(1-methyl-1H-1,2,4-triazol-5-yl)-3H-pyrido[4,3,2-de]phthalazin-3-one], the “affinity for tankyrase 2 (IC50)” value was “low nanomolar range”.

The values are drawn from patent publication EP4088745A1, “COMPOUND FOR THE DIAGNOSIS OF CANCER” (Eberhard Karls Universität Tübingen Medizinische Fakultät, priority 2021, dated 2022).
